Measurements as given in patent publication US20160215306A1 (priority 2013, published 2016).

Experiments:
Cellulase T. reesei = assay: Cleavage of glucose from resveratrol glucosides by Cellulase T. reesei; assay type: biochemical
Cellobiase from A. niger = assay: Cleavage of glucose from resveratrol glucosides by Cellobiase; assay type: biochemical; settings: 5 - Cellobiase A. niger

Measured: % cleavage in conditions tested

trans-resveratrol-4′-O-β-glucoside
✓ (✓ = >95%): Cellulase T. reesei; 3 - Cellulase T. reesei | Cellulase T. reesei; 3b - Cellulase T. resei | Cellobiase from A. niger
